## Yeast mating assay 2: variants of the scFv Ab-91

Binding partner: SARS-CoV-2 spike HR2 peptide, sequence PDVDLGDISGINAS.

Ab-91 is the parent antibody, in scFv form: VL, then a 15-residue (Gly4Ser)3 linker, then VH. The light chain is unchanged in all variants.
VL: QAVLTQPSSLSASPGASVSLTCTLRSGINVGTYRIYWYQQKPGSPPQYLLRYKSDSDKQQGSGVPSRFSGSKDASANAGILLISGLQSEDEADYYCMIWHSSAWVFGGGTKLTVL
VH: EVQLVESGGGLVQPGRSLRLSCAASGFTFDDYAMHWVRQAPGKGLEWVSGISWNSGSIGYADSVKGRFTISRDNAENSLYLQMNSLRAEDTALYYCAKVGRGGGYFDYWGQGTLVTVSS

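The starting antibody came from a phage panning campaign against this peptide. The library (AAYL51) carries one to three amino acid substitutions per variant, with no insertions or deletions. Affinity was read by AlphaSeq, a pooled yeast mating assay with surface-displayed partners. After mating in shaken culture at 30 °C for 16 h, diploids were selected and their barcode pairs sequenced. Scores were corrected for input abundance and mapped to Kd with protein pairs of known affinity run in the same pool. The assay was run in three technical replicates.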

The parent's heavy chain CDRs are GFTFDDYAMH, GISWNSGSIGYADSVK, VGRGGGYFDY; each variant's own CDRs replace them letter for letter.
Numbers give log10(Kd / nM), so 0 is 1 nM and 3 is 1 µM. Smaller is tighter.
A pair that was not seen in that replicate is written "nd"; this usually means weak binding, but a binder can also be missed.
Nonspecific signal, from three strains lacking the peptide, appeared in 21% of pairings of library AAYL51, centred on 4.54 (5% of these signals below 3.26); values are not corrected for it. Also given: how often the same scFv was detected with the empty control strains, with their mean in brackets.

| CDR-H1 | CDR-H2 | CDR-H3 | log10 Kd (nM) by replicate | control signals |
|---|---|---|---|---|
| GFTFDDLAPH | MISWNSGSIGYADSVK | VGRGGGYFDY | nd / 4.07 / nd | 0 of 9 |
| GFTFADYAMH | GISYNSGSIGYADSVK | VGRGGGFFDY | 3.65 / 4.02 / 3.69 | 8 of 9 (4.96) |
| GETFDDYAMH | GISWFSGSIGYADSVD | VGRGGGYFDY | 5.57 / nd / nd | 0 of 9 |
| GFTFYDYAMH | GISWNSHSIGYADSVK | VGRGGGYFDA | 1.65 / 1.55 / 1.14 | 3 of 9 (4.71) |
| GATFDDYAMH | KISWNSGSIGYADSVK | VGRKGGYFDY | nd / nd / nd | 0 of 9 |
| GFAFDDYLMH | GISWNSWSIGYADSVK | VGRGGGYFDY | nd / nd / nd | 0 of 9 |
| GFTFDDYAMH | GISWNHGSIGYADKGK | VGRGGGYFDY | nd / nd / nd | 0 of 9 |
| GFTFDDYAMH | GISWNSGSIGYDDSVK | VGRGHGYFEY | 1.27 / 1.32 / 0.77 | 1 of 9 (5.27) |
| GFTFDDYAMH | GYSWNSGSEGYADSVK | VGRGQGYFDY | 3.83 / nd / nd | 0 of 9 |
| GFTFADYAMH | GISPNSGSIGYADSVK | VGRGGNYFDY | 2.75 / 4.13 / nd | 0 of 9 |
| GFTFDWYAMH | GISANSGSIGYADSVK | VGIGGGYFDY | 0.52 / 0.51 / -0.07 | 7 of 9 (5.26) |
| GFTFDDYPMH | GISWNSGSIGYADSDN | VGRGGGYFDY | nd / nd / nd | 0 of 9 |
| GFTFDDYANH | GISWNYGSIIYADSVK | VGRGGGYFDY | nd / nd / nd | 4 of 9 (4.32) |
| GFTYWDYWMH | GISWNSGSIGYADSVK | VGRGGGYFDY | 5.01 / 4.40 / 5.49 | 1 of 9 (4.68) |
| GFTFDDYAMH | GISWNSGSIGYADSPK | VGRGGGYFDY | nd / nd / nd | 1 of 9 (3.75) |
| QFLFDDYAMH | GISWNSGSIGYADSVC | VGRGGGYFDY | nd / 5.04 / nd | 0 of 9 |
| GLTFDDYAEH | GISWNSGSIGYADSVK | CGRGGGYFDY | 4.55 / 4.93 / nd | 3 of 9 (4.79) |
| GFMFDDYAMH | GISWNSHSIGYADSVK | VGRGGGYFDY | 3.37 / 3.45 / 2.32 | 2 of 9 (3.68) |
| GQTFDDYAFH | GISWNSGSIGYADSVK | VGRGGGYFDV | 3.83 / nd / nd | 1 of 9 (3.11) |
| GFTFDKYAMH | GISWNSGSIGYADSVW | VGRLGGYFDY | 1.72 / 1.74 / 1.41 | 2 of 9 (3.91) |
| GPTFDDSAMH | GISWNSGSIGYADHVK | VGRGGGYFDY | nd / nd / nd | 3 of 9 (4.44) |
| GFTFDYEAMH | AISWNSGSIGYADSVK | VGRGGGYFDY | nd / nd / nd | 0 of 9 |
| GFTFDDYAMH | GHSINSGSIGYADSVK | VGRGGGYFDI | 5.02 / nd / nd | 2 of 9 (5.63) |
| GFTADDYAAH | GISWNSGGIGYADSVK | VGRGGGYFDY | nd / nd / nd | 0 of 9 |
| GFTFDDYAMH | GVSTNSGSIGYADSVK | TGRGGGYFDY | nd / 4.76 / nd | 4 of 9 (4.82) |
| GFTFQDYAMH | GISWSSGSIKYADSVK | VGRGGGYFDY | nd / 4.34 / nd | 0 of 9 |
| GFTFDDYAMH | GITWNSGSIGYADSVK | VGRGGLYPDY | nd / nd / 4.34 | 2 of 9 (4.61) |
| WFTFDDYAMH | GISVNSGSIGYADSVK | VGRGGGYFVY | nd / 6.49 / nd | 5 of 9 (5.02) |
| GFTFDDYAPH | GISWNSGSIGYADSAK | VGRGGGYFDY | 1.48 / 1.38 / 0.85 | 4 of 9 (5.00) |
| GFTFDDEAMH | GISWNSMSIGYADHVK | VGRGGGYFDY | nd / nd / nd | 1 of 9 (3.44) |
| GFTFDDYAMV | GISWHSGSIGYADSVK | VGRGGGYFEY | 5.32 / nd / nd | 4 of 9 (5.39) |
| GFTFDDYAMH | GISWNSTSIGTADSVS | VGRGGGYFDY | 4.49 / 4.10 / 4.00 | 1 of 9 (4.29) |
| GYTFDDYAMH | GISANPGSIGYADSVK | VGRGGGYFDY | nd / 4.16 / 2.87 | 1 of 9 (3.67) |
| GFTFDDMAMR | GISWNSGSIWYADSVK | VGRGGGYFDY | nd / nd / nd | 1 of 9 (1.48) |
| GFTFDLYAMH | GISWNSGSIMYADSVK | VCRGGGYFDY | nd / nd / 1.59 | 0 of 9 |
| GFTFDDYAMH | GISWNSGYIGYADSVK | VTRQGGYFDY | nd / nd / nd | 1 of 9 (4.05) |
| GFTSDGYAMH | GISWNSGSIGYADSVK | GGRGGGYFDY | nd / nd / nd | 0 of 9 |
| GFSFDDYAMH | GICWNSGSIGYAKSVK | VGRGGGYFDY | 5.78 / 5.11 / 5.72 | 6 of 9 (4.97) |
| GFTFDDYAMI | GISWPSGSIGIADSVK | VGRGGGYFDY | 4.44 / nd / nd | 2 of 9 (4.76) |
| GFTFDDYAMH | GISWNSGSIEYADSIK | VGRGGGYFDL | 2.67 / 2.57 / 2.58 | 6 of 9 (4.61) |
| GFTFDDYAMH | GISWNSGSIGYADSVK | VGDGVGYFDK | 2.92 / 2.85 / 3.15 | 2 of 9 (3.71) |
| GFTDDDYAMH | GISWNMGSIGYADSVY | VGRGGGYFDY | nd / nd / nd | 2 of 9 (5.29) |
| GFTFDDYYMH | GISWNSGSIGYADSVK | VGRGGGYFVY | nd / nd / nd | 0 of 9 |
| GETFDDYAMH | GISWNDGSIGYADSVK | VGRGGGYFHY | 3.64 / nd / nd | 0 of 9 |
| GFTEDDYAMH | GISWNSGSHCYADSVK | VGRGGGYFDY | 4.49 / nd / 4.76 | 1 of 9 (4.59) |
| GFTFDDYAMH | QISWNSGSIGYADSVK | VNRGGGYFDR | 4.21 / nd / 4.52 | 0 of 9 |
| GFQFDDYAMH | GISWNSGSIGYADSVK | VGRGGGYFDY | 1.49 / 1.47 / 0.85 | 5 of 9 (5.11) |
| GFTFDDYAMH | GISWNSGSIDYADSVK | VGRGYGYFHY | nd / nd / nd | 0 of 9 |

The last 8 entries again:

{"CDR-H1": "GFTFDDYAMH", "CDR-H2": "GISWNSGSIGYADSVK", "CDR-H3": "VGDGVGYFDK", "log10 Kd (nM) by replicate": "2.92 / 2.85 / 3.15", "control signals": "2 of 9 (3.71)"}
{"CDR-H1": "GFTDDDYAMH", "CDR-H2": "GISWNMGSIGYADSVY", "CDR-H3": "VGRGGGYFDY", "log10 Kd (nM) by replicate": "nd / nd / nd", "control signals": "2 of 9 (5.29)"}
{"CDR-H1": "GFTFDDYYMH", "CDR-H2": "GISWNSGSIGYADSVK", "CDR-H3": "VGRGGGYFVY", "log10 Kd (nM) by replicate": "nd / nd / nd", "control signals": "0 of 9"}
{"CDR-H1": "GETFDDYAMH", "CDR-H2": "GISWNDGSIGYADSVK", "CDR-H3": "VGRGGGYFHY", "log10 Kd (nM) by replicate": "3.64 / nd / nd", "control signals": "0 of 9"}
{"CDR-H1": "GFTEDDYAMH", "CDR-H2": "GISWNSGSHCYADSVK", "CDR-H3": "VGRGGGYFDY", "log10 Kd (nM) by replicate": "4.49 / nd / 4.76", "control signals": "1 of 9 (4.59)"}
{"CDR-H1": "GFTFDDYAMH", "CDR-H2": "QISWNSGSIGYADSVK", "CDR-H3": "VNRGGGYFDR", "log10 Kd (nM) by replicate": "4.21 / nd / 4.52", "control signals": "0 of 9"}
{"CDR-H1": "GFQFDDYAMH", "CDR-H2": "GISWNSGSIGYADSVK", "CDR-H3": "VGRGGGYFDY", "log10 Kd (nM) by replicate": "1.49 / 1.47 / 0.85", "control signals": "5 of 9 (5.11)"}
{"CDR-H1": "GFTFDDYAMH", "CDR-H2": "GISWNSGSIDYADSVK", "CDR-H3": "VGRGYGYFHY", "log10 Kd (nM) by replicate": "nd / nd / nd", "control signals": "0 of 9"}

For reference, the parent read 1.86 as the reference entry and 0.88 as a member of this library.

Values reported by Engelhart et al. 2022, doi:10.1038/s41597-022-01779-4 (FLAb copy).